Measurements reported in patent US12528818B2, “Compositions and methods for inhibition of RAS” (Leidos Biomedical Research, Inc., priority 2021, dated 2026).
Like-named read-outs stand apart in the source and are kept apart here.

How the values were obtained:
[1] = target: GppNHp-loaded KRAS4b (amino acids 1-169) G12C/C118S protein (Homo sapiens, UniProt P01116, C118S/G12C); assay: Covalent cysteine 12 modification by MALDI-TOF MS, GppNHp-loaded KRAS G12C; type: biochemical; conditions: 15 minutes reaction time, compound 95 or later using 1 μM proteins
[2] = target: GDP-loaded KRAS4b (amino acids 1-169) G12C/C118S protein (Homo sapiens, UniProt P01116, C118S/G12C); assay: Covalent cysteine 12 modification by MALDI-TOF MS, GDP-loaded KRAS G12C; type: biochemical; conditions: 15 minutes reaction time, compound 95 or later using 1 μM proteins
[3] = target: T1, Avi-KRAS G12C (1-169) GppNHp/RAF1 RBD-3xFLAG (52-151) (Homo sapiens, UniProt P01116, G12C); conditions: read-out: Raf1-GppNHp-KRAS G12C disruption; Raf1 RBD-KRAS G12C-GppNHp disruption assay IC50
[4] = target: T2, GTP-loaded KRAS4b (amino acids 1-169) G12C/C118S protein (Homo sapiens, UniProt P01116, C118S/G12C); assay: Covalent cysteine 12 modification by MALDI-TOF MS, GTP-loaded KRAS G12C; type: biochemical; conditions: 15 minutes reaction time, compound 95 or later using 1 μM proteins
T2 construct: KRAS4b (amino acids 1-169) G12C/C118S protein; made in house

[5] = target: T1, Avi-KRAS G12C (1-169) GppNHp/RAF1 RBD-3xFLAG (52-151); assay: biochemical; conditions: Raf1-GppNHp-KRAS G12C disruption, Raf1 RBD-KRAS G12C-GppNHp disruption assay IC50

## C=CC(=O)N1CCC[C@@H](N(C)c2nc(OC[C@@]34CCCN3C[C@H](F)C4)nc3c(F)c(-c4ccc(F)c5sc(N)nc45)c(Cl)cc23)C1 (atropisomer, axis not shown) [Compound 242]
[1]
  GppNHp-KRAS G12C percent of modification: C (10%≤percent of modification <50%)
[2]
  GDP-KRAS G12C percent of modification: C (10%≤percent of modification <50%)
[3]
  IC50: < 500 nM

## C=CC(=O)N1C[C@H](N(C)c2ncnc3c(F)c(-c4ccc(F)c5sc(N)nc45)c(C(F)(F)F)cc23)C2(CC2)C1 (atropisomer, axis not shown) [Compound 264]
[1]
  GppNHp-KRAS G12C percent of modification: D (percent of modification <10%)
[2]
  GDP-KRAS G12C percent of modification: D (percent of modification <10%)
[3]
  IC50: > 20000 nM

## C=CC(=O)N1C[C@H](C)N(c2nc(OC[C@@]34CCCN3C[C@H](OC)C4)nc3c(F)c(-c4ccc(F)c5sc(N)nc45)c(C(F)(F)F)cc23)C[C@H]1C [Compound 297]
[1]
  GppNHp-KRAS G12C percent of modification: A (percent of modification ≥70%)
[4]
  GTP-KRAS G12C percent of modification: C (10%≤percent of modification <50%)
[2]
  GDP-KRAS G12C percent of modification: A (percent of modification ≥70%)
[3]
  IC50: < 500 nM

## C=CC(=O)N1CCC(N(CC)c2nc(OC[C@@H]3C[C@@H](F)CN3C)nc3cc(-c4ccc(F)c5sc(N)c(C#N)c45)c(C#N)cc23)[C@H]1COC (stereo partly shown) [Compound 471]
[1]
  GppNHp-KRAS G12C percent of modification: C (10%≤percent of modification <50%)
[4]
  GTP-KRAS G12C percent of modification: D (percent of modification <10%)
[2]
  GDP-KRAS G12C percent of modification: C (10%≤percent of modification <50%)
[5]
  IC50: < 500 nM

## C=CC(=O)N1CCC(N(C)c2nc(OC[C@@]34CCCN3C[C@H](OC)C4)nc3c(F)c(-c4ccc(F)c5sc(N)c(C#N)c45)c(Cl)cc23)[C@H]1C (stereo partly shown) [Compound 474]
[1]
  GppNHp-KRAS G12C percent of modification: A (percent of modification ≥70%)
[4]
  GTP-KRAS G12C percent of modification: C (10%≤percent of modification <50%)
[2]
  GDP-KRAS G12C percent of modification: A (percent of modification ≥70%)
[5]
  IC50: < 500 nM

## C=CC(=O)N1CCC(N(C)c2nc(OC[C@@]34CCCN3C[C@H](OC)C4)nc3c(F)c(-c4ccc(F)c5sc(N)c(C#N)c45)c(C(F)(F)F)cc23)[C@H]1C (stereo partly shown) [Compound 476]
[1]
  GppNHp-KRAS G12C percent of modification: C (10%≤percent of modification <50%)
[4]
  GTP-KRAS G12C percent of modification: C (10%≤percent of modification <50%)
[2]
  GDP-KRAS G12C percent of modification: A (percent of modification ≥70%)
[5]
  IC50: < 500 nM
